Assays:
[1] = tested on: KB xenograft tumor; assay: Pharmacodynamic evaluation in KB xenograft tumor mouse model; format: in vivo, nu/nu nude mice; conditions: single intravenous injection; for Mean tumor volume (Day 0): Day 0 (day of grouping), mean ± standard error
Text: (§1) Cells were taken from the FRα-positive cell strain KB and inoculated into the right forelimb axilla of nu/nu nude mice at 10^7 cells/mouse (6 mice per group). When the mean tumor volumes of the mice reached about 100 mm^3 (groups 1-6) and 145 mm^3 (groups 7-8), the mice were randomly grouped and subjected to administration by a single intravenous injection. The day of grouping was defined as Day 0, and the administration was started on Day 0. After tumor grafting, the experimental animals were routinely monitored for tumor growth and the effect of treatment on the normal behavior, specifically the activity, food and water intake, body weight gain or loss (the body weight was measured twice a week), and abnormalities in eyes, fur, and other aspects. Calculation formula for tumor volume: Tumor volume (mm^3) = 1/2 × (a × b^2) (where a represents the long diameter, and b represents the short diameter). Table 15: Efficacy of groups 1-6 in KB xenograft tumor model

[2] = tested on: SW620 xenograft tumor; assay: Pharmacodynamic evaluation in SW620 xenograft tumor mouse model; format: in vivo, nu/nu nude mice; conditions: SW620, 1.5 mg/kg, single intravenous injection
Text: as §1, with “strain SW620” for “strain KB”, “about 130” for “about 100”, “(groups 1-2),” for “(groups 1-6) and 145 mm^3 (groups 7-8),”, “Table 18:” for “Table 15:”, “of each group” for “of groups 1-6”, “in SW620” for “in KB”

[3] = tested on: NCI-H441 xenograft tumor; assay: Pharmacodynamic evaluation in NCI-H441 xenograft tumor mouse model; format: in vivo, nu/nu nude mice; conditions: NCI-H441, 1 mg/kg, single intravenous injection
Text: as §1, with “strain NCI-H441” for “strain KB”, “(groups 1-6),” for “(groups 1-6) and 145 mm^3 (groups 7-8),”, “Table 17:” for “Table 15:”, “of each group” for “of groups 1-6”, “in NCI-H441” for “in KB”

[4] = ADC hydrophilicity by hydrophobic interaction chromatography (HIC); format: physicochemical; conditions: HIC-HPLC, TSKgel Butyl-NPR
[5] = tested on: OV-90 xenograft tumor; assay: Pharmacodynamic evaluation in OV-90 xenograft tumor mouse model; format: in vivo, NCG and NOD SCID immunodeficient mice; conditions: for Mean tumor volume (Day 0): Day 0 (day of grouping); for Mean tumor volume (Day 0) / Mean tumor volume (Day 11): mean ± standard error; for TGI(%) / Mean tumor volume (Day 11): Day 11
Text: Cells were taken from the FRα-positive cell strain OV-90 and inoculated into the right forelimb axilla of NCG and NOD SCID immunodeficient mice aged 4-6 weeks at 10^7 cells/mouse (3 mice per group). When the mean tumor volumes of the mice reached about 180 mm^3 (groups 1-3) and 145 mm^3 (groups 4-5), the mice were randomly grouped and subjected to administration. The day of grouping was defined as Day 0, and the administration was started on Day 0. After tumor grafting, the experimental animals were routinely monitored for tumor growth and the effect of treatment on the normal behavior, specifically the activity, food and water intake, body weight gain or loss (the body weight was measured twice a week), and abnormalities in eyes, fur, and other aspects. Calculation formula for tumor volume: Tumor volume (mm^3) = 1/2 × (a × b^2) (where a represents the long diameter, and b represents the short diameter). Table 19: Efficacy of each group in OV-90 xenograft tumor model

[6] = OV-90, NCG immunodeficient mice, 1 mg/kg
[7] = OV-90, NCG immunodeficient mice, 5 mg/kg
[8] = OV-90, NOD SCID immunodeficient mice, 3 mg/kg

B1: F-ADC55-1-8 (conjugate)
heavy: EVQLVESGGGVVQPGRSLRLSCSASGFTFSGYGLSWVRQAPGKGLEWVAMISSGGSYTYYADSVKGRFAISRDNAKNTLFLQMDSLRPEDTGVYFCARHGDDPAWFAYWGQGTPVTVSSASTKGPSVFPLAPSSKSTSGGTAALGCLVKDYFPEPVTVSWNSGALTSGVHTFPAVLQSSGLYSLSSVVTVPSSSLGTQTYICNVNHKPSNTKVDKKV[human IgG1 Fc not given here]
light: DIQLTQSPSSLSASVGDRVTITCSVSSSISSNNLHWYQQKPGKAPKPWIYGTSNLASGVPSRFSGSGSGTDYTFTISSLQPEDIATYYCQQWSSYPYMYTFGQGTKVEIKRTVAAPSVFIFPPSDEQLKSGTASVVCLLNNFYPREAKVQWKVDNALQSGNSQESVTEQDSKDSTYSLSSTLTLSKADYEKHKVYACEVTHQGLSSPVTKSFNRGEC
[1]; 1.5 mg/kg
  Mean tumor volume (Day 0): 145.4±25.9 mm^3
[1]; 1.5 mg/kg, Day 20
  TGI(%): 105.6%
[1]; 1.5 mg/kg, Day 20, mean ± standard error
  Mean tumor volume (Day 20): 82.1±85.8 mm^3
[1]; 3 mg/kg
  Mean tumor volume (Day 0): 98.6±10.6 mm^3
[1]; 3 mg/kg, Day 30
  TGI(%): 104.7%
[1]; 3 mg/kg, Day 30, mean ± standard error
  Mean tumor volume (Day 30): 4.4±7.4 mm^3
[1]; 3 mg/kg, mice that achieved CR, 6 mice per group
  CR: 4
[2]; Day 0 (day of grouping)
  Mean tumor volume (Day 0): 130.3±15.3 mm^3
[2]; Day 14
  Mean tumor volume (Day 14): 35.0±18.1 mm^3
  TGI(%): 113.3%
[3]; Day 0 (day of grouping), mean ± standard error
  Mean tumor volume (Day 0): 107.1±19.5 mm^3
[3]; Day 32
  TGI(%): 117.5%
[3]; Day 32, mean ± standard error
  Mean tumor volume (Day 32): 33.9±13.0 mm^3
[4]
  Retention time: 6.123 min
[5]; [6]
  Mean tumor volume (Day 0): 180.7±33.8 mm^3
  TGI(%): 110.9%
  Mean tumor volume (Day 11): 104.9±30.0 mm^3
[5]; [7]
  Mean tumor volume (Day 0): 181.4±37.7 mm^3
  TGI(%): 120.7%
  Mean tumor volume (Day 11): 37.5±1.3 mm^3
[5]; [8]
  Mean tumor volume (Day 0): 145.2±10.7 mm^3
  TGI(%): 126.1%
  Mean tumor volume (Day 11): 29.2±8.4 mm^3

Reference: patent EP4702992A1, “ANTIBODY-DRUG CONJUGATE” (priority 2023, dated 2024)
